Source: paper PMC10762035, “Molecular basis of human trace amine-associated receptor 1 activation” (Nature Communications, 2024)
Positions count from the first letter of the chain named. Several values for one entry are separate records, joined by “and”; a condition that tells them apart may be missing. Equal values may be shown once. Read-outs that look alike come from different tables or passages of the source.

Legend:
Type in all cases: cell-based
hTA1 C88S = molecular target: T1, hTA1 C88S (Homo sapiens, UniProt Q96RJ0, C88S); test: GloSensor cAMP accumulation assay, C88S mutant
T1 construct: expressed in transfected cells; host or cells: HEK293T
T1 sequence (Q96RJ0 1-339 C88S): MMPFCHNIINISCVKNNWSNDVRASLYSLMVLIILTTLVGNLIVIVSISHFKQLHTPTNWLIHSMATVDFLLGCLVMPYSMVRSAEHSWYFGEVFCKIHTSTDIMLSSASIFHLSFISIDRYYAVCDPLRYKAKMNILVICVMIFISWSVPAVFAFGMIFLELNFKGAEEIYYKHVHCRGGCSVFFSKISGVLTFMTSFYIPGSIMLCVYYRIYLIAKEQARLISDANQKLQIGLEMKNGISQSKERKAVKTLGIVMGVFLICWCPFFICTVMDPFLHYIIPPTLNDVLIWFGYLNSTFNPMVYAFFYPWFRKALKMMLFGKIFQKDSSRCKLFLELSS

hTA1 C178S = molecular target: T2, hTA1 C178S (Homo sapiens, UniProt Q96RJ0, C178S); test: GloSensor cAMP accumulation assay, C178S mutant; conditions: for EC50: C178S
T2 construct: expressed in transfected cells; host or cells: HEK293T
T2 sequence (Q96RJ0 1-339 C178S): T1 sequence (Q96RJ0 1-339 C88S) with S88C, C178S

hTA1 W264F = molecular target: T3, hTA1 W264F (Homo sapiens, UniProt Q96RJ0, W264F); test: GloSensor cAMP accumulation assay, W264F mutant;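 note: cells transiently transfected with receptor plus GloSensor, luminescence read 30 min after agonist addition at room temperature, concentration-response curves fitted by log(agonist) vs response regression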
T3 construct: expressed in transfected cells; host or cells: HEK293T
T3 sequence (Q96RJ0 1-339 W264F): T1 sequence (Q96RJ0 1-339 C88S) with S88C, W264F

hTA1 S107C = molecular target: T4, hTA1 S107C (Homo sapiens, UniProt Q96RJ0, S107C); test: GloSensor cAMP accumulation assay, S107C mutant; conditions: S107C; n=2; read-out: EC50;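 note: cells transiently co-expressing receptor and GloSensor biosensor, luminescence read after 30 min agonist exposure at room temperature, concentration-response fitted by nonlinear regression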
T4 construct: expressed in transfected cells; host or cells: HEK293T
T4 sequence (Q96RJ0 1-339 S107C): T1 sequence (Q96RJ0 1-339 C88S) with S88C, S107C

hTA1 V184P = molecular target: T5, hTA1 V184P (Homo sapiens, UniProt Q96RJ0, V184P); test: GloSensor cAMP accumulation assay, V184P mutant
T5 construct: expressed in transfected cells; host or cells: HEK293T
T5 sequence (Q96RJ0 1-339 V184P): T1 sequence (Q96RJ0 1-339 C88S) with S88C, V184P

hTA1 I290N = molecular target: T6, hTA1 I290N (Homo sapiens, UniProt Q96RJ0, I290N); test: GloSensor cAMP accumulation assay, I290N mutant;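 note: cells transiently co-expressing hTA1 and the GloSensor cAMP biosensor, luminescence read 30 min after compound addition at room temperature, efficacy scaled to the maximal β-PEA response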
T6 construct: expressed in transfected cells; host or cells: HEK293T
T6 sequence (Q96RJ0 1-339 I290N): T1 sequence (Q96RJ0 1-339 C88S) with S88C, I290N

hTA1 T271A = molecular target: T7, hTA1 T271A (Homo sapiens, UniProt Q96RJ0, T271A); test: GloSensor cAMP accumulation assay, T271A mutant
T7 construct: expressed in transfected cells; host or cells: HEK293T
T7 sequence (Q96RJ0 1-339 T271A): T1 sequence (Q96RJ0 1-339 C88S) with S88C, T271A

With `CCc1[nH]nc(C(=O)Nc2ccc([C@H]3CNCCO3)cc2)c1C` [ralmitaront] the EC50 (hTA1 C88S; Mean of fit per experiment, read-out: pEC50 values (converted)) was 64 nM and 76.5 nM, the EC50 (hTA1 C88S; n=2, read-out: EC50) was 70 nM and the EC50 (hTA1 C178S; each row one experiment (N=2), 3 replicates, read-out: pEC50 values, Mean (converted)) was 310 nM and 122 nM. The EC50 (hTA1 C178S; n=2, read-out: EC50) was 195 nM, the “C178S - Normalized Luminescence Counts (N=2)” value (hTA1 C178S; log[Compound], M = -6, single replicates) was 69.5866 and the EC50 (hTA1 W264F; W246F mutant (so in the source), each line an independent experiment, 3 replicates, read-out: pEC50 values (Mean) (converted)) was 7220 nM and 1730 nM. The EC50 (hTA1 W264F; W264F, n=2, read-out: EC50) was 3530 nM, the EC50 (hTA1 S107C) was 118 nM and the EC50 (hTA1 V184P; V184P, n=2, read-out: EC50) was 273 nM. The EC50 (hTA1 V184P; hTA1 V184P mutant, Figure 3B source data, each grid row a separate experiment, 3 replicates, read-out: pEC50 values (Mean) (converted)) was 298 nM and 250 nM, the EC50 (hTA1 I290N; I290N, n=2, read-out: EC50) was 94.7 nM and the EC50 (hTA1 I290N; hTA1 I290N mutant, Figure 3B source data, each grid row a separate experiment, 3 replicates, read-out: pEC50 values (Mean) (converted)) was 153 nM and 58.6 nM. The “ΔpEC50 values (each mutant value - WT average), Mean” value (hTA1 T271A; T271A mutant minus WT average, Figure 5B) was -0.2556, the EC50 (hTA1 T271A; T271A mutant, Figure 5B, each row one independent experiment (3 replicates), read-out: pEC50 values, Mean (converted)) was 114 nM and 199 nM and the EC50 (hTA1 T271A; T271A, n=2, read-out: EC50) was 151 nM.
